The entries are a selection whose mix differs from that of the whole data set. The source made the active and inactive calls. Rule as the data show it: active = inhibition above about 50%; inactive = the rest.
Assay: blockers of TWEAK-induced Fn14 reporter activity – luciferase reporter cells, uHTS, primary screen (AID 1159606)
Settings: TWEAK-stimulated Fn14 reporter cells, luciferase luminescence, 8 h; at 10 µM; active compounds read high

Row | Structure (SMILES) | inhibition
1 | COc1ccc(C(=O)NCC2(N3CCCCC3)CCCCC2)c(OC)c1OC | inactive: -3.76%
2 | CC(C)(C)OC(=O)N1CCC(N(C(=O)c2ccccc2)c2ccc(F)cc2)CC1 | inactive: 0.62%
3 | CCC(c1nnnn1C1CCCC1)N1CCC(n2c(=O)[nH]c3ccccc32)CC1 (stereo not given) | inactive: -36.1%
4 | COc1ccc(C(=O)NCC2(N3CCCCC3)CCCCC2)cc1 | inactive: 7.19%
5 | CCCCn1nnnc1C(CC)N1CCC(n2c(=O)[nH]c3ccccc32)CC1 (stereo not given) | inactive: -3.62%
6 | O=C(NCC1(N2CCCCC2)CCCCC1)c1cccs1 | inactive: -0.99%
7 | CCCCn1nnnc1C(c1cccs1)N1CCC(n2c(=O)[nH]c3ccccc32)CC1 (stereo not given) | inactive: 18.9%
8 | O=C(NCC1(N2CCCCC2)CCCCC1)c1ccc(=O)[nH]c1 | inactive: 12.8%
9 | Cc1cccc(NC2(C#N)CCN(Cc3ccccc3)CC2)c1 | inactive: -1.91%
10 | CSc1ccccc1C(=O)NCC1(N2CCCCC2)CCCCC1 | inactive: -13.3%
11 | Cc1cc(C)cc(N(C(=O)c2ccccc2)C2CCN(C(=O)OC(C)(C)C)CC2)c1 | inactive: -2.84%
12 | O=C(NCC1(N2CCCCC2)CCCCC1)c1ccc(Cl)nc1 | inactive: -8.86%
13 | O=c1[nH]c2ccccc2n1C1CCN(C(c2ccccc2OC(F)(F)F)c2nnnn2C2CCCCC2)CC1 (stereo not given) | inactive: 5.24%
14 | O=C(NCC1(N2CCOCC2)CCCCC1)c1cc2ccccc2o1 | inactive: -10.1%
15 | COc1ccc(Cl)cc1C(=O)NCC1(N2CCOCC2)CCCCC1 | inactive: -1.01%
16 | N#CC1(Nc2ccccc2)CCN(Cc2ccccc2)CC1 | inactive: -0.84%
17 | O=C(NCC1(N2CCCCC2)CCCCC1)c1ccc(Cl)s1 | inactive: -16.1%
18 | O=c1[nH]c2ccccc2n1C1CCN(C(c2cc3ccccc3o2)c2nnnn2C2CCCCC2)CC1 (stereo not given) | active: 81.2%
19 | O=C(OC1CN2CCC1CC2)C1c2ccccc2Oc2ccccc21 (stereo not given) | inactive: -1.31%
20 | CCCCn1nnnc1C(c1ccc(OC)cc1)N1CCC(n2c(=O)[nH]c3ccccc32)CC1 (stereo not given) | inactive: -7.96%

Row | Structure (SMILES) | inhibition
21 | CCOC(=O)N1CCC(Nc2ccc(OC)cc2)CC1 | inactive: -3.76%
22 | O=C1CCN(Cc2ccccc2)CC1 | inactive: 2.92%
23 | CC(C)(C)n1nnnc1C(c1ccccc1)N1CCC(n2c(=O)[nH]c3ccccc32)CC1 (stereo not given) | inactive: -13.9%
24 | CCOc1ccc(C)cc1CN(CCCl)CCCl | inactive: -5.32%
25 | CCOC(=O)N1CCC(Nc2ccc(F)cc2)CC1 | inactive: 1.83%
26 | COc1ccc(NC2CCN(CCc3ccccc3)CC2)c(OC)c1 | inactive: 1.16%
27 | CCCCOc1ccc(C(=O)NCC2(N3CCOCC3)CCCCC2)cc1 | inactive: 2.86%
28 | O=P1(N(CCCl)CCCl)SCCCS1 | inactive: 25.2%
29 | CCCCn1nnnc1C(c1cc2ccccc2o1)N1CCC(n2c(=O)[nH]c3ccccc32)CC1 (stereo not given) | active: 58.6%
30 | O=C(NCC1(N2CCCCC2)CCCCC1)c1ccc(F)cc1 | inactive: 9.76%
31 | O=c1[nH]c2ccccc2n1C1CCN(C(c2ccccc2)c2nnnn2C2CCCCC2)CC1 (stereo not given) | inactive: 36.6%
32 | CCOC(=O)N1CCC(Nc2cccc(C)c2)CC1 | inactive: 1.14%
33 | COc1cc(C(=O)NCC2(N(C)C)CCCCC2)ccc1OC(F)F | inactive: 7.45%
34 | O=c1[nH]c2ccccc2n1C1CCN(C(c2cccc3ccccc23)c2nnnn2C2CCCC2)CC1 (stereo not given) | inactive: 14.3%
35 | O=C(NCC1(N2CCCCC2)CCCCC1)c1ccc(OC(F)F)cc1 | inactive: -3.92%
36 | CC(C)(C)n1nnnc1C(c1ccccc1OC(F)(F)F)N1CCC(n2c(=O)[nH]c3ccccc32)CC1 (stereo not given) | inactive: 19.8%
37 | O=c1[nH]c2ccccc2n1C1CCN(C(c2ccccc2OC(F)(F)F)c2nnnn2C2CCCC2)CC1 (stereo not given) | inactive: 28.4%
38 | N#CC1(Nc2ccccc2)CCN(CCc2ccccc2)CC1 | inactive: -3.53%
39 | CCN1CCC(Nc2ccc(Cl)cc2)CC1 | inactive: 4.31%
40 | CSc1ccc(C(=O)NCC2(N3CCOCC3)CCCCC2)cc1 | inactive: -1.78%

Row | Structure (SMILES) | inhibition
41 | O=C(NCC1(N2CCCCC2)CCCCC1)c1cccc([N+](=O)[O-])c1 | inactive: 8.84%
42 | O=C(NCC1(N2CCCCC2)CCCCC1)c1cccc(C(F)(F)F)c1 | inactive: 13.9%
43 | O=C(NCC1(N2CCOCC2)CCCCC1)c1cc(=O)[nH]c2ccccc12 | inactive: 15.3%
44 | COc1cc(C(=O)NCC2(N3CCCCC3)CCCCC2)ccc1OC(F)F | inactive: 7.32%
45 | COc1ccc(NC2CCN(C(=O)OC(C)(C)C)CC2)cc1 | inactive: -6.21%
46 | CC(C)c1ccc(C(=O)NCC2(N3CCOCC3)CCCCC2)cc1 | inactive: -20.3%
47 | CN1CCN(CCOC(=O)C(O)(c2ccccc2)c2ccccc2)CC1 | inactive: -10.9%
48 | CCCCn1nnnc1C(c1cccc2ccccc12)N1CCC(n2c(=O)[nH]c3ccccc32)CC1 (stereo not given) | inactive: 15.7%
49 | CC(C)c1ccc(NC2CCN(C(=O)OC(C)(C)C)CC2)cc1 | inactive: -4.08%
50 | CCCCn1nnnc1C(c1ccccc1OC(F)(F)F)N1CCC(n2c(=O)[nH]c3ccccc32)CC1 (stereo not given) | inactive: 18.4%
51 | CN(C)c1cccc(C(=O)NCC2(N3CCCCC3)CCCCC2)c1 | inactive: 5.11%
52 | COc1ccc(CN(CCCl)CCCl)cc1Cl | inactive: 11.2%
53 | O=C(NCC1(N2CCOCC2)CCCCC1)c1cc(F)c(F)cc1Cl | inactive: -10.1%
54 | CCC(c1nnnn1C(C)(C)C)N1CCC(n2c(=O)[nH]c3ccccc32)CC1 (stereo not given) | inactive: -10.7%
55 | COc1cc(OC)c(C(=O)NCC2(N(C)C)CCCCC2)cc1OC | inactive: -4.8%
56 | CCCCn1nnnc1C(c1ccnc2ccccc12)N1CCC(n2c(=O)[nH]c3ccccc32)CC1 (stereo not given) | inactive: 3.82%
57 | CN1CCC(Nc2cccc(F)c2)CC1 | inactive: -0.39%
58 | O=C(NCC1(N2CCCCC2)CCCCC1)c1cncc(Br)c1 | inactive: 6.46%
59 | COc1ccc(C(c2nnnn2C2CCCC2)N2CCC(n3c(=O)[nH]c4ccccc43)CC2)cc1 (stereo not given) | inactive: -1.47%
60 | CCCOc1ccc(C(=O)NCC2(N(C)C)CCCCC2)cc1OC | inactive: -1.72%

Source: PubChem BioAssay AID1159606 (Sanford-Burnham Center for Chemical Genomics, 2016)
